Laboratory results as given in patent US11186579B2 (Gilead Sciences, Inc., priority 2018, dated 2021).

Protein sequences, listed by entry. Tags and fused reporters are not part of them.
UniProt P14902, whole entry: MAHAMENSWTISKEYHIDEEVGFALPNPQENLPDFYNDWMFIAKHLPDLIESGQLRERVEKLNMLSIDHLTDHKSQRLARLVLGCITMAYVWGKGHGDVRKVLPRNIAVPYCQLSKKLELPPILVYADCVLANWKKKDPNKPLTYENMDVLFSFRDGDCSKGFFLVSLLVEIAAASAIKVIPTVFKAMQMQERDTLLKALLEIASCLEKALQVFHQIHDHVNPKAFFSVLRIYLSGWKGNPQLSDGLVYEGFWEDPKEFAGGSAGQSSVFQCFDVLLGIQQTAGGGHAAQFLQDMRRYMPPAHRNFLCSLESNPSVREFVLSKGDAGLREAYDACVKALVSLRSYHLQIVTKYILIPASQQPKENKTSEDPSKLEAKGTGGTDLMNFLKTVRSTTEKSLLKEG

Biological target: IDO1 (Homo sapiens, UniProt P14902)
Assay: Cell-Based (HeLa) Assay for Measurement of IDO1 Inhibition
Conditions: H1-HeLa cells, IDO1 induced with IFNγ, 48 hour incubation, kynurenine in supernatant (absorbance 480 nm); geometric mean of minimum four determinations

EC50: 441 nM
SMILES: Cc1ncc(-c2cccc3c(-c4cccc(F)c4F)cnn23)cc1C(=O)Nc1ccc(F)cc1
